Test system: E. coli ATCC 11775
Settings: EMS 2% w/v 30 min, NQO 400 μg/ml 60 min, MNNG 10 μg/ml 10 min, average of two experiments

## CN(N=O)C(=N)N[N+](=O)[O-]
  Mutant Frequencies (NA^R phenotype): 1.1 × 10^−8
Vs non-treated control = 100%
  Survival (%): 43%

Source: patent US6875582B1 (priority 1999, dated 2005)
